These results are taken from IntAct's records for PubMed 26342079.

To fix the notation:
B1: LYR motif-containing protein 4 (Homo sapiens), Q9HD34 (parent)
chain: MAASSRAQVLSLYRAMLRESKRFSAYNYRTYAVRRIRDAFRENKNVKDPVEIQTLVNKAKRDLGVIRRQVHIGQLYSTDKLIIENRDMPRT
partner: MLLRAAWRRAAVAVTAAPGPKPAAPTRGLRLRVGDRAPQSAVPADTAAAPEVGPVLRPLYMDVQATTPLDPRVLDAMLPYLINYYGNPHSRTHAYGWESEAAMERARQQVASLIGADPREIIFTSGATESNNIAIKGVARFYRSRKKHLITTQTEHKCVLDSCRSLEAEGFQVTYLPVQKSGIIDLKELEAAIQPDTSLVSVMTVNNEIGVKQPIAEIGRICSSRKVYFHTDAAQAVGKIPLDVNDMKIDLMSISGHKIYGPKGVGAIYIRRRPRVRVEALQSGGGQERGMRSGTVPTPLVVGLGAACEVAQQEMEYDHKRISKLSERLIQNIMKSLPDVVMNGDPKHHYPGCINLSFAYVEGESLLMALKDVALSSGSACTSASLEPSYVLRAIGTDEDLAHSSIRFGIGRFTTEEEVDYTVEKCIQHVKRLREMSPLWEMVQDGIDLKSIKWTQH

Holding throughout (settings): with nfs1_human NFS1, Q9Y697
Variants of B1 are the subject of assay [1].
The variants in assay [2] derive from B1. The source holds these as a separate data set.
Assay [3] covers variants of B1. The source holds these as a separate data set.

On to Y76A, for which the “effect of a mutation on the interaction” value was “decreasing interaction strength” with nfs1_human NFS1, Q9Y697 [1] and “disrupting interaction strength” with nfs1_human NFS1, Q9Y697 [2].
L63A: the “effect of a mutation on the interaction” value in the assay with nfs1_human NFS1, Q9Y697 [1] is “decreasing interaction strength”.
On to E84A, for which the “effect of a mutation on the interaction” value is listed as “decreasing interaction strength” with nfs1_human NFS1, Q9Y697 [1] and “disrupting interaction strength” in the assay with nfs1_human NFS1, Q9Y697 [2].
Consider R68L, for which the “effect of a mutation on the interaction” value with nfs1_human NFS1, Q9Y697 [3] is listed as “decreasing interaction strength”.
For the variant R68A, the “effect of a mutation on the interaction” value is given as “decreasing interaction strength” with nfs1_human NFS1, Q9Y697 [1] and “disrupting interaction strength” with nfs1_human NFS1, Q9Y697 [2].
Consider Q69A, for which the “effect of a mutation on the interaction” value is given as “decreasing interaction strength” with nfs1_human NFS1, Q9Y697 [1] and “disrupting interaction strength” with nfs1_human NFS1, Q9Y697 [2].
As to F40A, the “effect of a mutation on the interaction” value in the assay with nfs1_human NFS1, Q9Y697 [1] is recorded as “decreasing interaction strength”; with nfs1_human NFS1, Q9Y697 [2], “disrupting interaction strength”.
For the variant I72A, the “effect of a mutation on the interaction” value with nfs1_human NFS1, Q9Y697 [1] is recorded as “decreasing interaction strength”; with nfs1_human NFS1, Q9Y697 [2], “disrupting interaction strength”.
On the same counts, the results for L81A are “decreasing interaction strength” and “disrupting interaction strength”.
